Biological target: Full-length inactive AKT1 (Homo sapiens, UniProt P31749)
Experiment: Inactive Akt HTRF Assay (Akt1)
Conditions: read-out: Akt1 IC50, (HTRF assay); values marked with "*": HTRF assay

Amino acid sequences for entries named in this document (tags omitted). A change or cut given only in a name is not applied to a line headed by its entry.
UniProt P31749: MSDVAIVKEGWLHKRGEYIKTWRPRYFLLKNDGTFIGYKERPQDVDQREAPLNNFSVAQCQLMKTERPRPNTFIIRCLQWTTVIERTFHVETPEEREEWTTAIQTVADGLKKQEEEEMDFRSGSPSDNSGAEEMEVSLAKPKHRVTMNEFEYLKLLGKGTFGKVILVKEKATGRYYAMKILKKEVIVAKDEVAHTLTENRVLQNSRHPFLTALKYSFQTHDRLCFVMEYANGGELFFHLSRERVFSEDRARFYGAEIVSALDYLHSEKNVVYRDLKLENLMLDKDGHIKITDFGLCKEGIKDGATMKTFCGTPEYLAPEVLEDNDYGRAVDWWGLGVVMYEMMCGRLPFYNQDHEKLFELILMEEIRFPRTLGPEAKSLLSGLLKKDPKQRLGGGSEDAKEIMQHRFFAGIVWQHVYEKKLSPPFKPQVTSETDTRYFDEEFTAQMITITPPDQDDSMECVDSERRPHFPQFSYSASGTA

Q: How did the IC50 turn out when `NCc1ccc(-n2c(-c3cccnc3N)nc3cc(Br)cnc32)cc1` [Example 6, (3-(3-(4-aminomethyl)phenyl)-6-bromo-3H-imidazolo[4,5-b]pyridin-2-yl)pyridine-2-amine hydro chloride] was run?
A: Its IC50 is 68.2 µM.
